Values of other authors in patent US20230382949A1, “LINEAR APELIN RECEPTOR AGONISTS” (HEPTARES THERAPEUTICS LIMITED, priority 2020, published 2023).

Conditions: cited from earlier work

For Apelin [reference compound], the “half-life in the blood circulation” value is listed as “around one”.
